The molecules below were run on NRF2-ARE signaling pathway (assay: cells). Details: Arec32, 24 h, read-out: NRF2 (CD, μM), concentration required to double luciferase activity, AREc32 cells, 24 h.
Format: cell-based
Procedure: AREc32 cells were plated in 96-well white plates (2 × 10^4 cells/well). […]. The AREc32 cells constitutively express the plasmid pGL-8xARE that implements eight copies of the EpRE sequences, followed by the luciferase reporter gene. Therefore, NRF2 induction is related to the activation of EpRE sequences, expressing luciferase at the same extent as EpRE sequences are activated. The Luciferase Assay System (Promega E1500) was used according to the provider’s protocol, and luminescence was quantified in an Orion II microplate luminometer (Berthold, Germany). Fold induction of luciferase activity was normalized to basal conditions. Data are expressed as CD values, expressing the concentration required to double the luciferase activity. CD values were calculated from dose–response curves generated from the fold induction of control conditions versus inducer concentration and fitted by nonlinear regression and data interpolated to twofold induction concentration.[68]

Protein sequences, listed by entry. Tags and fused reporters are not part of them.
UniProt P27338, whole entry: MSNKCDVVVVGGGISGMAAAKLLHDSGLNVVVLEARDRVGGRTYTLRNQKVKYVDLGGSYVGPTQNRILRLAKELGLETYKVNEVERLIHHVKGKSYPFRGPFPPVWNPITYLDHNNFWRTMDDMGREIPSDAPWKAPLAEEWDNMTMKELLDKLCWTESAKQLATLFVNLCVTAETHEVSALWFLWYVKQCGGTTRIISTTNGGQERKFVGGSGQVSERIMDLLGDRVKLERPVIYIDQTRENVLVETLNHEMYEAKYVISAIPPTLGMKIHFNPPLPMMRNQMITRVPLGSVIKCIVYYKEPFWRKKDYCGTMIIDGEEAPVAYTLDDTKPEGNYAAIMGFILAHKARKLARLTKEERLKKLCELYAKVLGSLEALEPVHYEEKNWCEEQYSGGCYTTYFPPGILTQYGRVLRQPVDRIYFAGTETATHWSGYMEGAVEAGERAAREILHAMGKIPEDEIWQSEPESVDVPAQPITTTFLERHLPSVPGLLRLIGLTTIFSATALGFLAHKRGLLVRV

SMILES | EC (2-fold induction)
O=c1[nH]nc(/C=C/c2ccc3c(c2)OCO3)o1 [2i, 5-[(E)-2-(2H-1,3-Benzodioxol-5-yl)ethenyl]-1,3,4-oxadiazol-2(3H)-one] | > 60 µM
C#CCNC/C=C/c1ccc(O)c(OC)c1 [8n, 2-Methoxy-4-{(1E)-3-[(prop-2-yn-1-yl)amino]prop-1-en-1-yl}phenol] | 22.3 µM
C#CCNC(=O)/C=C/c1ccc(O)cc1 [6m, (2E)-3-(4-Hydroxyphenyl)-N-(prop-2-yn-1-yl)prop-2-enamide] | > 60 µM
C#CCn1nc(/C=C/c2ccccc2)oc1=O [4a, 5-[(E)-2-Phenylethenyl]-3-(prop-2-yn-1-yl)-1,3,4-oxadiazol-2(3H)-one] | 16.9 µM
C#CCNC(=O)/C=C/c1ccc(O)c(O)c1 [6o, (2E)-3-(3,4-Dihydroxyphenyl)-N-(prop-2-yn-1-yl)prop-2-enamide] | 19.2 µM
C#CCn1nc(/C=C/c2cccc(OC)c2)oc1=O [4d, 5-[(E)-2-(3-Methoxyphenyl)ethenyl]-3-(prop-2-yn-1-yl)-1,3,4-oxadiazol-2(3H)-one] | 7.44 µM
O=c1[nH]nc(/C=C/c2cccc([N+](=O)[O-])c2)o1 [2c, 5-[(E)-2-(3-Nitrophenyl)ethenyl]-1,3,4-oxadiazol-2(3H)-one] | 8.42 µM
C#CCn1nc(/C=C/c2cccc(O)c2)oc1=O [5l, 5-[(E)-2-(3-Hydroxyphenyl)ethenyl]-3-(prop-2-yn-1-yl)-1,3,4-oxadiazol-2(3H)-one] | 8.05 µM
C#CCn1nc(/C=C/c2ccc(OC)cc2)oc1=O [4e, 5-[(E)-2-(4-Methoxyphenyl)ethenyl]-3-(prop-2-yn-1-yl)-1,3,4-oxadiazol-2(3H)-one] | 9.83 µM

These molecules were tested against hMAO-B (Homo sapiens, UniProt P27338) (assay: not given). Details: not given.

SMILES | hMAOs SI
O=c1[nH]nc(/C=C/c2ccc3c(c2)OCO3)o1 [2i, 5-[(E)-2-(2H-1,3-Benzodioxol-5-yl)ethenyl]-1,3,4-oxadiazol-2(3H)-one] | >1.8
C#CCNC/C=C/c1ccc(O)c(OC)c1 [8n, 2-Methoxy-4-{(1E)-3-[(prop-2-yn-1-yl)amino]prop-1-en-1-yl}phenol] | <0.6
C#CCNC(=O)/C=C/c1ccc(O)cc1 [6m, (2E)-3-(4-Hydroxyphenyl)-N-(prop-2-yn-1-yl)prop-2-enamide] | >1.6
C#CCn1nc(/C=C/c2ccccc2)oc1=O [4a, 5-[(E)-2-Phenylethenyl]-3-(prop-2-yn-1-yl)-1,3,4-oxadiazol-2(3H)-one] | >5.1
C#CCNC(=O)/C=C/c1ccc(O)c(O)c1 [6o, (2E)-3-(3,4-Dihydroxyphenyl)-N-(prop-2-yn-1-yl)prop-2-enamide] | <0.9
C#CCn1nc(/C=C/c2cccc(OC)c2)oc1=O [4d, 5-[(E)-2-(3-Methoxyphenyl)ethenyl]-3-(prop-2-yn-1-yl)-1,3,4-oxadiazol-2(3H)-one] | >78.1
O=c1[nH]nc(/C=C/c2cccc([N+](=O)[O-])c2)o1 [2c, 5-[(E)-2-(3-Nitrophenyl)ethenyl]-1,3,4-oxadiazol-2(3H)-one] | >47.2
C#CCn1nc(/C=C/c2cccc(O)c2)oc1=O [5l, 5-[(E)-2-(3-Hydroxyphenyl)ethenyl]-3-(prop-2-yn-1-yl)-1,3,4-oxadiazol-2(3H)-one] | >14.2
C#CCn1nc(/C=C/c2ccc(OC)cc2)oc1=O [4e, 5-[(E)-2-(4-Methoxyphenyl)ethenyl]-3-(prop-2-yn-1-yl)-1,3,4-oxadiazol-2(3H)-one] | >6.2
